We go through one molecule from publication PMC5934680, “A new class of antibacterials, the imidazopyrazinones, reveal structural transitions involved in DNA gyrase poisoning and mechanisms of resistance” (Nucleic Acids Research, 2018).

By UniProt entry, the sequences of proteins in these tests, tags left out.
UniProt P0AES4, whole entry: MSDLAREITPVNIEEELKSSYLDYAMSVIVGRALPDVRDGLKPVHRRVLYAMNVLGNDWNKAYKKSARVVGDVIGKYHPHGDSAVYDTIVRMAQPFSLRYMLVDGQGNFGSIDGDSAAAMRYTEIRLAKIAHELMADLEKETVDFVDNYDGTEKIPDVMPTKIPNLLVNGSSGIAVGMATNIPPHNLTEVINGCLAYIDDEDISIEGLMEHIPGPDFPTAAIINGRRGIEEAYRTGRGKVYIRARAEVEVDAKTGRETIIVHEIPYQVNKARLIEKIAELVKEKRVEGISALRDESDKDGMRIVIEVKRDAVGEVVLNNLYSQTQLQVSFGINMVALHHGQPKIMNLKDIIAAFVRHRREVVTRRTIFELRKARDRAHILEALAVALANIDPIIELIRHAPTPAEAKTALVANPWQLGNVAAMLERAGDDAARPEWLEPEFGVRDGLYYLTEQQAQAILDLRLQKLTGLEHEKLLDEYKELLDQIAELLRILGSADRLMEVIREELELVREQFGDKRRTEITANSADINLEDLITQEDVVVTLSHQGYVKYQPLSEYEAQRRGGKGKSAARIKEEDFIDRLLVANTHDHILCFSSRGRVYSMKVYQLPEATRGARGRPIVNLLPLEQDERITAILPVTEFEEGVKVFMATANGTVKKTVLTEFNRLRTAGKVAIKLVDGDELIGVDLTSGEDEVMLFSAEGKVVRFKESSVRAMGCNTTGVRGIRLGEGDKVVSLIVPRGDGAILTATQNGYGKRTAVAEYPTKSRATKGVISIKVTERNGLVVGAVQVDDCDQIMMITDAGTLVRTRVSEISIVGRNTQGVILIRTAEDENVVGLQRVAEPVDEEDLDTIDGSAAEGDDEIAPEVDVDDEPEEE

The assay deals with wild-type E. coli DNA gyrase (Escherichia coli, UniProt P0AES4+P0AES6). Put plainly: biochemical. The method, then:
Supercoiling reactions were carried out as described previously ([24]) with minor adjustments. A total of 500 ng of relaxed pBR322 plasmid was used as a substrate for each 30 μl reaction. The amount of DNA gyrase (A2B2) added was normalized by testing various dilutions of the stock (A2B2 containing 0.5 mg/ml of each subunit) without compound. The amount sufficient to supercoil 50% of the substrate was then used for the testing of compounds. See Supplementary Figure S1 for details. This ensured a limiting amount of enzyme for every mutant tested. The individual gyrase subunits were either prepared in the lab as described previously ([25]) or purchased from Inspiralis.

Usually IC50 stands for the concentration that inhibits the measured activity by half. Lower therefore signals inhibition by little substance. `O=c1c2nccn2c2cc(F)c(-c3ccncc3)cc2n1C1CC1` [t3] showed an IC50 of 1600 nM.
